Experimental data published in patent US20230405140A1, “ANTI-CD56 ANTIBODY-DRUG CONJUGATES AND THEIR USE IN THERAPY” (MCSAF INSIDE ONCOLOGY, priority 2020, published 2023).

Assays:
[1] = tested on: H69 small cell lung carcinoma cell line; test: XTT cytotoxicity test on H69 line; details: at the lowest effective concentrations tested, in words
Method: (§1) In order to evaluate cell viability, a cytotoxicity test using XTT was carried out. The cells were deposited in a 96-well plate (50 000 cells/well) in 7 replicates. […] The culture medium acted as a negative control. After 4 days of exposure to the drug, 25 μL of reagent XTT was added per well and the absorption was measured at 450 nm after 4 hours of incubation at 37° C. The absorption at 620 nm was used as a reference.

[2] = tested on: WaGa MCC xenograft; test: Xenograft model of MCC cell line on NOD/SCID mouse (Example 5); format: in vivo, NOD/SCID mice; details: triple dose of 10 mg/kg, intravenous; sacrifice 30 days after inclusion
[3] = tested on: MCC lines (WaGa, PeTa, MS-1, MKL-2); test: XTT cytotoxicity test on MCC cell lines; details: at the lowest effective concentrations tested, in words
Method: as §1

[4] = tested on: MS-1; test: Immunocytochemical fixation of antibody on tumor cells (peroxidase); format: binding; parameters: key: +: presence of a fixation of the antibody to the target cell revealed by peroxidase; −: absence of fixation; details: m906 650 ng/mL, trastuzumab 40 ng/mL; peroxidase secondary antibody
[5] = tested on: PeTa; test: as above; format: binding; parameters: key: +: presence of a fixation of the antibody to the target cell revealed by peroxidase; −: absence of fixation; details: m906 650 ng/mL, trastuzumab 40 ng/mL; peroxidase secondary antibody
[6] = tested on: SK-BR-3; test: as above; format: binding; parameters: key: +: presence of a fixation of the antibody to the target cell revealed by peroxidase; −: absence of fixation; details: m906 650 ng/mL, trastuzumab 40 ng/mL; CD56-negative HER2-positive control line
[7] = tested on: WaGa; test: as above; format: binding; parameters: key: +: presence of a fixation of the antibody to the target cell revealed by peroxidase; −: absence of fixation; details: m906 650 ng/mL, trastuzumab 40 ng/mL; peroxidase secondary antibody
[8] = tested on: MKL-2; test: as above; format: binding; parameters: key: +: presence of a fixation of the antibody to the target cell revealed by peroxidase; −: absence of fixation; details: m906 650 ng/mL, trastuzumab 40 ng/mL; peroxidase secondary antibody

## MF-TTZ-MMAE: ADC Trastuzumab coupled to MMAE (ADC control) [reference compound]
[1]
  Cytotoxic effect: neither the antibody m906 (i.e. non coupled to MMAE), nor the ADC MF-TTZ-MMAE (ADC control) has a cytotoxic effect
[2]
  mean weight of the tumors at end of study: 1.78 g
[3]
  Cytotoxic effect: neither the antibody m906 (i.e. non coupled to MMAE), nor the ADC MF-TTZ-MMAE (ADC control) has a cytotoxic effect

## Trastuzumab: anti-HER2 antibody control (Herceptin 150 mg Roche) [reference compound]
[4]
  Binding (fixation) to cell line MS-1: −
[5]
  Binding (fixation) to cell line PeTa: −
[6]
  Binding (fixation) to cell line SKBR3: +
[7]
  Binding (fixation) to cell line WaGa: −
[8]
  Binding (fixation) to cell line MKL-2: −
